Data from patent publication US11638723B2, “Method for generating T cells progenitors” (Assistance Publique—Hopitaux de Paris, priority 2017, dated 2023).

Key:
Type in all cases: cell-based, human
DL-4 T-cell precursors = test: Analysis of T cell receptor rearrangement; conditions: after 7 days of culture
Protocol: TCR gene rearrangement analysis was performed in duplicate and on the two independently purified subsets (average is shown). TCR-δ quantification (D δ2-D δ3, D δ2-J δ1, and D δ3-J δ1) was performed with the listed sets of primers and probes. The analysis of TCR rearrangements by multiplex fluorescent PCR was performed by separation of fluorochrome-labeled single stand PCR products in a capillary sequencing polymer and detected via automated laser scanning.

[1] = tested on: CD34+ cells from cord blood; test: DL-4 culture of CD34+ cells, T-cell precursor generation (flow cytometry)
Protocol: CD34+ cells from human CB or mobilized peripheral blood samples were cultured in 24-well plates or 6-well plates that had been coated with recombinant human fibronection (RetroNectin®, Clontech/Takara) and DL-4 (5 μg/ml, PX'Therapeutics, Grenoble, France). Coating was performed for 2 h at 37° C., DL-4 coated wells were then blocked with bovine serum albumin 2% (BSA) in phosphate-buffered saline (PBS) for 30 minutes at 37° C. and washed with PBS. […] After 3 days of culture, the cells were half replaced by fresh medium. Cultured cells were analyzed by fluorescence-activated cell sorting (FACS) after 3 and 7 days of culture on DL-4 respectively to exclude CD34-/CD7-myeloid cells from subsequent analyses. Human cells were stained and analyzed using a Gallios analyzer (Beckman Coulter, Krefeld, Germany). Cells from xenogenic recipients were analysed on a MACSQuant® apparatus (Miltenyi Biotech, Bergisch Gladbach, Germany). The data were analyzed using FlowJo software (Treestar, Ashland, Oreg.) after gating on viable, 7AAD-negative cells. Cell subsets were sorted on an ARIA II system. For cell cycle analysis, cells were stained with Hoechst33342 (Life technology) and Ki67-PC5 (BD Bioscience) after fixed with Fixative reagent of PerFix-nc kit (Beckman Coulter) at room temperature for 15 min, and added permeablizing reagent. The data were analyzed using FlowJo software (version 10.2, Treestar, Ashland, Oreg.) after gating on viable, 7AAD-negative cells.

[2] = tested on: CD34+ cells from CB and mPB; test: Cell proliferation assay (CFSE)
Protocol: For cell proliferation assays, CD34+ cells from CB and mPB were labeled using the CellTrace™ CFSE kit (Life Technologies, Carlsbad, Calif.) prior to culture with DL-4 and TNF-alpha (Life Technologies). The cells' staining intensity was measured prior to culture each day from day 3 to day 7. CFSE-positive cell were analyzed on a Gallios cytometer (Beckman Coulter).
After 7 days of culture in presence of TNF-alpha, CD34+ CD7−, CD34+ CD7+ and CD34−CD7+ subsets were sorted, stained with CFSE (Carboxyfluorescein succinimidyl ester) and the dilution of CFSE (surrogate marker of cell proliferation) was followed from day 8 to 10.

[3] = tested on: cells differentiated from mobilized peripheral blood CD34+ cells; test: Apoptosis assay (7AAD / Annexin V); conditions: mPB, culture in presence of TNF-alpha
Protocol: (§1) Cells were washed by cold PBS and resuspended in binding buffer at a concentration of 1 million cells/ml. After adding 5 ul Annexin V-PE (BD Bioscience) and 2 ul 7AAD, cells were incubated in the dark at room temperature for 15 min. Subsequently, cells were washed with 500 ul binding buffer and resuspended in 100 ul binding buffer to be analyzed within 1 hour.
(§2) Apoptosis markers (7AAD and Annexin5) were studied.

[4] = tested on: cells differentiated from cord blood CD34+ cells; test: Apoptosis assay (7AAD / Annexin V); conditions: CB, culture in presence of TNF-alpha
Protocol: as §1, §2

[5] = tested on: CD34+ cells from mobilized peripheral blood; test: DL-4 culture of CD34+ cells, T-cell precursor generation (flow cytometry)
Protocol: CD34+ cells from human CB or mobilized peripheral blood samples were cultured in 24-well plates or 6-well plates that had been coated with recombinant human fibronection (RetroNectin®, Clontech/Takara) and DL-4 (5 μg/ml, PX'Therapeutics, Grenoble, France). Coating was performed for 2 h at 37° C., DL-4 coated wells were then blocked with bovine serum albumin 2% (BSA) in phosphate-buffered saline (PBS) for 30 minutes at 37° C. and washed with PBS. Cultures were initiated at a concentration of 2×10^4 cells/well or 1×10^5 cells/well (for 24-well and 6-well plates respectively) in α-MEM medium (Gibco, life Technology), supplemented with NaHCO3 (7.5%) (Gibco, life Technology) and 20% defined fetal calf serum (Hyclone, Thermo Fisher Scientific, Illkirch, France) and the recombinant human cytokines interleukin-7 (IL-7), Flt3-ligand (Flt-3), stem cell factor (SCF) and thrombopoietin (TPO) (all at 100 ng/ml and all purchased from PeproTech Inc, Rocky Hill, N.J.) with or without TNF-α (R&D Systems, US). After 3 days of culture, the cells were half replaced by fresh medium. Cultured cells were analyzed by fluorescence-activated cell sorting (FACS) after 3 and 7 days of culture on DL-4 respectively to exclude CD34-/CD7-myeloid cells from subsequent analyses.
Human cells were stained and analyzed using a Gallios analyzer (Beckman Coulter, Krefeld, Germany). Cells from xenogenic recipients were analysed on a MACSQuant® apparatus (Miltenyi Biotech, Bergisch Gladbach, Germany). The data were analyzed using FlowJo software (Treestar, Ashland, Oreg.) after gating on viable, 7AAD-negative cells. Cell subsets were sorted on an ARIA II system.
For cell cycle analysis, cells were stained with Hoechst33342 (Life technology) and Ki67-PC5 (BD Bioscience) after fixed with Fixative reagent of PerFix-nc kit (Beckman Coulter) at room temperature for 15 min, and added permeablizing reagent. The data were analyzed using FlowJo software (version 10.2, Treestar, Ashland, Oreg.) after gating on viable, 7AAD-negative cells.

[6] = Cord blood, 7 days of culture, flow cytometry
[7] = mPB, 7 days of culture, flow cytometry

Substance: TNF-alpha: soluble TNF-alpha (Tumor Necrosis Factor Alpha, Uniprot P01375, SEQ ID NO: 8), added to the culture medium
- signs of TCR rearrangement (DL-4 T-cell precursors): do not exhibit any signs of TCR rearrangement
- increase of number of CD7+ cells (T-cell progenitors) at day 7 ([1]; CB HSPC, TNF-alpha from day 0 in DL-4 culture): 20 fold
- TNF-alpha concentration at which CD7+ cell numbers increase during culture ([1]; CB cells, dose response, day 3 to day 7, FIG. 6.A): more than 10 ng/ml
- cell cycle analysis, cells in G0 phase ([1]; CB derived CD7+ progenitors, TNF-alpha 20 ng/ml, FIG. 8): more cells were released from G0 phase
- effect on T-cell differentiation (percentage of CD34− CD7+ cells), dose response ([1]; CB, 0.01-10 ng/ml, FIG. 7): concentration-dependent at low concentration
- frequency of myeloid cells (CD14 and CD33) at day 7 ([1]; CB, FIG. 5): not detectable
- differentiation into CD7+ T-cell precursors without DL4 ([1]; CB, day 7, without DL4, FIG. 4): couldn't rescue
- CD5+ CD7+ cells [1, 6]: 0.66
- CD5+ CD7− cells [1, 6]: 0.012
- CD5− CD7+ cells [1, 6]: 95.4
- CD5− CD7− cells [1, 6]: 3.97
- CD34+ CD7+ cells [1, 6]: 0.39
- CD34+ CD7− cells [1, 6]: 0.76
- CD34− CD7+ cells [1, 6]: 95.6
- CD34− CD7− cells [1, 6]: 3.22
- multiplication of total number of cells recovered at day 7 as compared to culture without TNF-alpha ([1]; cord blood CD34+ cells cultured with DL-4, FIG. 1.A, TNF-alpha 100 ng/ml): 10 times
- expression of Bcl11b (intracellular staining), proportion of expressing cells ([1]; cord blood, 7 days of culture, FIG. 3): positive expression of Bcl11b
- proliferation of CD34+ CD7+ T-cell precursors as compared to culture without TNF-alpha ([2]; since day 3 in DL-4 culture): increase the proliferation
- proliferation (CFSE dilution) of sorted CD34+ CD7+ and CD34−CD7+ subsets ([2]; sorted after 7 days of culture, followed day 8 to 10): increased proliferation
- 7AAD +/− AnnexinV+ apoptotic cells (%) [3]: 0.96%
- 7AAD +/− AnnexinV+ apoptotic cells (%) [4]: 0.28%
- multiplication of total number of cells recovered at day 7 as compared to culture without TNF-alpha ([5]; PB CD34+ cells cultured with DL-4, FIG. 1.B, TNF-alpha 100 ng/ml): 10 times
- increase of number of CD7+ cells (T-cell progenitors) at day 7 ([5]; mPB HSPC, TNF-alpha from day 0 in DL-4 culture): 40 fold
- TNF-alpha concentration at which CD7+ cell numbers increase during culture ([5]; mPB cells, dose response, day 3 to day 7, FIG. 6.B): more than 10 ng/ml
- cell cycle analysis, cells in G0 phase ([5]; mPB derived CD7+ progenitors, TNF-alpha 20 ng/ml, FIG. 8): more cells were released from G0 phase
- effect on T-cell differentiation (percentage of CD34− CD7+ cells), dose response ([5]; mPB, 0.01-10 ng/ml, FIG. 7): concentration-dependent at low concentration
- expression of Bcl11b (intracellular staining), proportion of expressing cells ([5]; mPB, 7 days of culture, FIG. 3): positive expression of Bcl11b
- CD5+ CD7+ cells [5, 7]: 3.01
- CD5+ CD7− cells [5, 7]: 0.24
- CD5− CD7+ cells [5, 7]: 87.7
- CD5− CD7− cells [5, 7]: 9.00
- CD34+ CD7+ cells [5, 7]: 0.68
- CD34+ CD7− cells [5, 7]: 2.75
- CD34− CD7+ cells [5, 7]: 90.1
- CD34− CD7− cells [5, 7]: 6.49
- frequency of myeloid cells (CD14 and CD33) at day 7 ([5]; mPB, FIG. 5): not detectable
- differentiation into CD7+ T-cell precursors without DL4 ([5]; mPB, day 7, without DL4, FIG. 4): couldn't rescue
